Results published in patent US20110313041A1 (priority 2008, published 2011).

Chains of the proteins cited; added tags and fusions are not shown. Residues count along the entry.
UniProt P22303, 32-614: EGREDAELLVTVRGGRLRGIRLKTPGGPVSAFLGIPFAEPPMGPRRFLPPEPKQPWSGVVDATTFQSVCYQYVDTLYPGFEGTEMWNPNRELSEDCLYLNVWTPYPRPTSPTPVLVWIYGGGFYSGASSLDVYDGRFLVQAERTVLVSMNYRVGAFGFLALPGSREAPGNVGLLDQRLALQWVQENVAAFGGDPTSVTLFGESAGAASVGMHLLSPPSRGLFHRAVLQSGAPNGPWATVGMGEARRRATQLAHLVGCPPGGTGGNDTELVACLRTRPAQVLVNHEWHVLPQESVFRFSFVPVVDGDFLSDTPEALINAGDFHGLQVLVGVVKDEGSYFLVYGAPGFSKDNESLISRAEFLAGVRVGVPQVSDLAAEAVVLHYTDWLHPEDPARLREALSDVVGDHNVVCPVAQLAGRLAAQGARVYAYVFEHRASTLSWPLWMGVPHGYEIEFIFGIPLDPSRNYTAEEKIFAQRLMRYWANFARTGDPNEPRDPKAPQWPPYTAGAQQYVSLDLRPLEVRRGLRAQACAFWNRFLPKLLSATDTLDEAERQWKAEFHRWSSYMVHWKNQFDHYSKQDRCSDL

Molecular target: T1, Acetylcholinersterase (Homo sapiens, UniProt P22303)
T1 construct: endogenous in cells; host or cells: human subject in vivo (oral intake of the drug)
Experiment: treatment of chronic fatigue with Neostigminbromid, reactions at breakfast
Type: in vivo
Description: Immediately afterwards, response experiment to sublingual/buccal applied 2 g-Panthenol Tbl. was executed. […] After its decay and continuation of the breakfast with bread the same reactions in bladder, womb and bowel 10 minutes later repeated with time shortened duration. […] The 140 mg of the Acetylcholinersteraseinhibitor Neostigminbromid were still effective after 6 indifferent hours.
Acetylcholine, the natural excitation transmitter from the nerve to the muscle effects striped muscles in concentrations of 10^−6 g/l, smooth muscles already in concentrations of 10^−16 g/l. (4) These “adverse” reactions are contractions of smooth muscles of lachrymal gland, bladder, stomach, intestine, caused by there suddenly synthesized acetylcholine, which exceeds the Response threshold that is 10^−16 grams per liter of acetylcholine in smooth muscles: • a) within 10 minutes of ingestion into the stomach and after the end of reaction; • b) within 10 minutes of sublingual/buccal absorption of 2000 mg Tbl Panthenol, while Acetylcholinersterase-inhibition amongst 140 mg Neostgminbromid is existing. […] (13)

For `CN(C)C(=O)Oc1cccc([N+](C)(C)C)c1.[Br-]` [Neostigminbromid], the duration of effectiveness (140 mg Neostigminbromid) was at least 6 h, the “time until adverse reactions started after the first bite” value (140 mg Neostigminbromid late at night, breakfast next morning) was 10 min and the adverse reactions (140 mg Neostigminbromid, after first bite of breakfast) was “weeping nose, watery eyes, urination, body trimming”. The “time after which adverse reactions subsided” value (140 mg Neostigminbromid, breakfast) was 15 min.
